Test results taken from ChEMBL document CHEMBL1944520, “Discovery of 3-aryloxy-lactam analogs as potent androgen receptor full antagonists for treating castration resistant prostate cancer” (Bioorg Med Chem Lett, 2012).

By UniProt entry, the sequences of proteins in these tests, tags left out. Where a name states a change or a piece, a line headed by the entry shows the natural chain unless it says otherwise.
UniProt P10275: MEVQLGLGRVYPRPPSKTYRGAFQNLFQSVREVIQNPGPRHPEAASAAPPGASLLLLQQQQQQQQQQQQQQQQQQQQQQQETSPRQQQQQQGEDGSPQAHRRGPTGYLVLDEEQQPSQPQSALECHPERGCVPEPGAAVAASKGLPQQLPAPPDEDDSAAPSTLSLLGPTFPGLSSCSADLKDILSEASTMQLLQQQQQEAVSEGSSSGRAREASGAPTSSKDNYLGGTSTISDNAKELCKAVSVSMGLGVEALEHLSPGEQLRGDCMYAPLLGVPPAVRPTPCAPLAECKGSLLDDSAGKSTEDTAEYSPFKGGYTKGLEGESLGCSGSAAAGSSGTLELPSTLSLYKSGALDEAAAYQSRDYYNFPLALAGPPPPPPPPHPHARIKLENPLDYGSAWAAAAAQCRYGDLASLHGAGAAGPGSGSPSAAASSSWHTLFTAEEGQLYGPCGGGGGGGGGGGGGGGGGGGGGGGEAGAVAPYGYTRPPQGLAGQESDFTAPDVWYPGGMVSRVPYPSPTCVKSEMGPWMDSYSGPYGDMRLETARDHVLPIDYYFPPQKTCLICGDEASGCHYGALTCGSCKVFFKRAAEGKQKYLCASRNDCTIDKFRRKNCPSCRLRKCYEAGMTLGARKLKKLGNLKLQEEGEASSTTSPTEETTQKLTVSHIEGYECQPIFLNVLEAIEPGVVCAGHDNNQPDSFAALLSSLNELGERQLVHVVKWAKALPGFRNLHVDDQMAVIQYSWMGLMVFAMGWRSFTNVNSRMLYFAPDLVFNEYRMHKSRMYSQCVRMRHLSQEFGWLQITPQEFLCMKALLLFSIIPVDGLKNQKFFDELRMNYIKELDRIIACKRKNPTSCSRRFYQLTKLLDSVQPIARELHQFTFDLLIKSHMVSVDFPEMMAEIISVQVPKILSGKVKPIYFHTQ

Target: Androgen receptor (Homo sapiens, UniProt P10275)
Test: Agonist activity at androgen receptor expressed in human LNAR cells as induction of luciferase activity by spectrophotometry relative to untreated control; note: test concentration or dose not given here
Type: functional, cell-based

CNC(=O)c1ccc(N2C(=S)N(c3ccc(C#N)c(C(F)(F)F)c3)C(=O)C23CCC3)cc1F was tested, and the fold change (FC) was 0.876.
